Columns and labels:
[1] = type: physicochemical
Text: Larger proteins can also form complexes with SDS. […] At higher SDS concentrations, hGH redissolves, presumably via micellar solubilization. […] Other proteins can also form complexes with SDS. Bovine pancreatic trypsin inhibitor (BPTI) is a small basic protein (MW 5900) with a well defined and stable structure (Wlodawer et. al. (1984) J. Mol. Biol. 180:301-329, and (1987) J. Mol. Biol. 193:145-156). […] In TMP, the globular structure is compromised, as determined by CD spectroscopy. Apparently, TMP is a strong enough solvent to displace water from the hydration sphere and destabilize the structure of BPTI. This mechanism of protein denaturation has been described in detail by Arakawa and […] (1982) Biochemistry 21:6536-6544. and (1982) Biochemistry 21:6545-6552. Stoichiometric addition of SDS to human serum albumin (HSA) (MW 68 kD) produces precipitates as a hydrophobic ion pair complex is formed.

[2] = Apparent partition coefficient water/1-octanol upon SDS addition; conditions: UV-visible absorption spectroscopy

Substance: HSA: human serum albumin (MW 68 kD)
- solubility in NMP [1]: less than 0.03 mg/ml

Substance: SDS-HSA complex: hydrophobic ion pair complex of human serum albumin with SDS
- solubility in NMP [1]: greater than 1 mg/ml
- partitioning into 1-octanol [2]: could not be detected
